The results in this text go back to ChEMBL document CHEMBL5136991, “Dual-target inhibitors of poly (ADP-ribose) polymerase-1 for cancer therapy: Advances, challenges, and opportunities” (Eur J Med Chem, 2022).

Sequences of proteins named here, by UniProt entry; tags and fusion partners are left off.
UniProt P09874, whole entry: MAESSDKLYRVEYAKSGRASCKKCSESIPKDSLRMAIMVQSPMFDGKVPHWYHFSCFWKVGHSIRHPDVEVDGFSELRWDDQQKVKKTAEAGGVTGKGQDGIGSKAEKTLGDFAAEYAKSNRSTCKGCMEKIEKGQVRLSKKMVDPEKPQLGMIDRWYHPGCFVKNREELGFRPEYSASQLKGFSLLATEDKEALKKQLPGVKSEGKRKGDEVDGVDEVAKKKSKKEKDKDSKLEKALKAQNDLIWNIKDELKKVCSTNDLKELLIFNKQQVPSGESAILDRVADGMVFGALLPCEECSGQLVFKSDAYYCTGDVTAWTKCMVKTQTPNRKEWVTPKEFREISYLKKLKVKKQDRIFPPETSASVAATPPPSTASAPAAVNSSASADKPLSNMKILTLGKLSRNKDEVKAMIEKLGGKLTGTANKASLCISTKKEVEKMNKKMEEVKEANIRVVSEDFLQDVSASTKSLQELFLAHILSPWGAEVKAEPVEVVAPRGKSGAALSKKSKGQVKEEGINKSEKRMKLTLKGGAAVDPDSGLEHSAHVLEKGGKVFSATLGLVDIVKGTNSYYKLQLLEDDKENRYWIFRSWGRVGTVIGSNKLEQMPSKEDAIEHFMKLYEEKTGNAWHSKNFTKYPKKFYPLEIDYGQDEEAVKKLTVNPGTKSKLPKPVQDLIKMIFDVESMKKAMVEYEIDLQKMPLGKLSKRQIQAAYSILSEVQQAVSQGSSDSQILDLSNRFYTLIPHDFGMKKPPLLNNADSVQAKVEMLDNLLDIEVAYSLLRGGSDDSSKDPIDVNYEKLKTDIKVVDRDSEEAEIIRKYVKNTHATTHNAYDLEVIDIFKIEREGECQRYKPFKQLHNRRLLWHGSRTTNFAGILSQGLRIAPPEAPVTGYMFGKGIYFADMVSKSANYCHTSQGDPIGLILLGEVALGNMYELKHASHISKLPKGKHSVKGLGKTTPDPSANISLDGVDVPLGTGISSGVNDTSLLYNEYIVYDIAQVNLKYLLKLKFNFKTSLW

This experiment concerns the target Poly [ADP-ribose] polymerase 1 (Homo sapiens, UniProt P09874). The experiment in a line: Inhibition of PARP1 (unknown origin).

Compound `O=C(COc1cccc2c(=O)[nH]ccc12)c1ccccc1` showed a half-inhibitory concentration (IC50) of 100 nM. That is a sub-micromolar value.
